Laboratory results published in US10336729B2, “4-cyano-benzyl carbamimidoylcarbamate derivatives and their use as AOC3 inhibitors” (Boehringer Ingelheim International GmbH, priority 2016, dated 2019).

Protein sequences, listed by entry. Tags and fused reporters are not part of them.
UniProt Q16853, whole entry: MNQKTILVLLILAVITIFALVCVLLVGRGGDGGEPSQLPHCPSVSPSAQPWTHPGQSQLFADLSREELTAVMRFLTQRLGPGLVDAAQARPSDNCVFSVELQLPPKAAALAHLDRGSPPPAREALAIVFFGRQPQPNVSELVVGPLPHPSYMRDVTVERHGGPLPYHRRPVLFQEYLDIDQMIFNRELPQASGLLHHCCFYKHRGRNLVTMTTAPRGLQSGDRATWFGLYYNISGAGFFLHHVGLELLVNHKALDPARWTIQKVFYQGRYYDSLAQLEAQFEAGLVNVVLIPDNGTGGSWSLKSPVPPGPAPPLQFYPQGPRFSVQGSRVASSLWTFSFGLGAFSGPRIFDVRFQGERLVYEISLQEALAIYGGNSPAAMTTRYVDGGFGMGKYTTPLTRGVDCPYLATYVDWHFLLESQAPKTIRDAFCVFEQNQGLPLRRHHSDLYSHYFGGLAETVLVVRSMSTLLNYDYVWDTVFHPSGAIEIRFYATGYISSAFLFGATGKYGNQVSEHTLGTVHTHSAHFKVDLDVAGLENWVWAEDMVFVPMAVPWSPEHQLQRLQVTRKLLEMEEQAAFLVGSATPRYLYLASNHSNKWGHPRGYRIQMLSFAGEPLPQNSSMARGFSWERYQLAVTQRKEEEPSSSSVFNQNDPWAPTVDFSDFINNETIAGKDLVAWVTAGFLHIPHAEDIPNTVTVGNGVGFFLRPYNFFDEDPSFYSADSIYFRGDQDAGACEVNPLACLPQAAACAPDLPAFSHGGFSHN

Target: AOC3 (Homo sapiens (Human), UniProt Q16853)
Test: MAO-Glo AOC3 assay
Settings: read-out: AOC3 IC50, recombinant CHO cells overexpressing AOC3 enzyme
Source text: The MAO-Glo™ Assay (commercial available from PROMEGA, #V1402) provides a sensitive method for the measurement of monoamine oxidase (MAO) activity (Valley, M. P. et al., 2006, Anal. Biochem. 359: 238-246) from a variety of tissues, biofluids or recombinant expressed or purified enzymes. As substrate a derivate of the beetle luciferin ((4S)-4,5-dihydro-2-(6-hydroxybenzothiazolyl)-4-thiazole-carboxylic acid) is used, which is oxidized at a primary amine moiety. After a spontaneous elimination and a catalyzed esterase reaction, the turnover of the luciferine by the luciferase is recorded as a signal of AOC3 activity.
For the determination of AOC3 activity or compound inhibition potency, the compound inhibitors are dissolved in DMSO and adjusted to the respective assay concentration with reaction buffer (50 mM HEPES, 5 mM KCl, 2 mM CaCl2), 1.4 mM MgCl2, 120 mM NaCl, 0.001% (v/v) Tween 20, 100 μM TCEP, pH 7.4). An aliquot of 3 μL of the compound dilution is added to a 384 well plate (Optiplate, PS, flat bottom, white, PERKIN ELMER, #6007290) with a final DMSO concentration of 6.6%. Recombinant CHO cells, overexpressing the human (1500 cells/well), mouse (1000 cells/well) or rat (500 cells/well) AOC3 enzyme are diluted in reaction buffer and added in a volume of 15 μL to the wells. […]

IC50: 204 nM
SMILES: N#Cc1ccc(COC(=O)NC(=N)N)c(F)c1N1CC(c2ccc(OCC3CC3)cc2)C1
